Test results: patent US11326138B2, “Cell culture device and methods of use thereof” (University of Kentucky Research Foundation, priority 2017, dated 2022)

Assay: Solute diffusion from microfluidic channels into agarose hydrogel (time-lapse fluorescence)
Type: physicochemical
Details: solution pumped through channels at 25 μL/min; 1.5 wt % agarose

Substance: FITC-dextran
- diffusion from microchannels into adjacent hydrogel: did not penetrate the hydrogel
